The series in a line: Particle size measurement of Citalopram HBr, Paroxetine HCl and Fluoxetine HCl. In kind it is physicochemical. The settings on record: Dist. Base: Volume. The protocol:
Particle size measurements were conducted on Paroxetine HCl.

Turning to `CNCCC(Oc1ccc(C(F)(F)F)cc1)c1ccccc1.Cl` (centres unmarked) [Fluoxetine HCl Provided by Supplier 2], the “Particle size, Mode” value was found to be 18.612 µm and the “Span: (D 20.0-D 10.0)/D50” value is listed as “Span: (D 20.0-D 10.0)/D50 = 0.178”.

For the origin of these results see patent US20080138411A1, “Modified Release Formulations Of Selective Serotonin Re-Uptake Inhibitors” (priority 2002, published 2008).
